Measured values published in US20250281491A1 (published 2025).

Sequences of proteins named here, by UniProt entry; tags and fusion partners are left off. A change or cut given only in a name is not applied to a line headed by its entry.
UniProt O00329: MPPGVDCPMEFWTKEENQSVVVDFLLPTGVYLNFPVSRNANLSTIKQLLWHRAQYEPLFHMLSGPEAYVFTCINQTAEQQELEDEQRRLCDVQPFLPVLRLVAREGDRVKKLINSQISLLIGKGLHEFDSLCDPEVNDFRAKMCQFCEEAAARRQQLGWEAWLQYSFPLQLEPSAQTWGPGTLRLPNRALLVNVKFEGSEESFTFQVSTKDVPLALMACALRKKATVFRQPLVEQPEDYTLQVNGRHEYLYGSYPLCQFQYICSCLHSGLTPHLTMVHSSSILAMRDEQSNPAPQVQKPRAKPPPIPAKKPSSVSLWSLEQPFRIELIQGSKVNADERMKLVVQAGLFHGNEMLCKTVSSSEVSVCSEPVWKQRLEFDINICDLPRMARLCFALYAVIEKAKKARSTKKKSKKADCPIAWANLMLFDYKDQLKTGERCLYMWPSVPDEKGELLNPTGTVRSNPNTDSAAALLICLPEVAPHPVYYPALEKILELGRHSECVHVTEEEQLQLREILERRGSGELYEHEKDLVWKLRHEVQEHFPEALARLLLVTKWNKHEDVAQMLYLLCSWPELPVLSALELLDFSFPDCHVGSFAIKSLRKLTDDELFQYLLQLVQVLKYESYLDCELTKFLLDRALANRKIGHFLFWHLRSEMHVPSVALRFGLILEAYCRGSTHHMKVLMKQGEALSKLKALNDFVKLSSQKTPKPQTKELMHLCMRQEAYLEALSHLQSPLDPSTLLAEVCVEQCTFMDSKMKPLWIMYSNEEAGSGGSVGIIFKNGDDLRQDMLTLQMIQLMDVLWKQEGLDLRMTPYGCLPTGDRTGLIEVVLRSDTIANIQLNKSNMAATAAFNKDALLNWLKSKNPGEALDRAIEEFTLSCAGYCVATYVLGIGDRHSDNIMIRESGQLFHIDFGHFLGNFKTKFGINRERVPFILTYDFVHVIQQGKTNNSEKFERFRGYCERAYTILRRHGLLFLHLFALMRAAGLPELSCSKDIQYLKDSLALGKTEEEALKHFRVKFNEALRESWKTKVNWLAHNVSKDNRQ
UniProt P42336, whole entry: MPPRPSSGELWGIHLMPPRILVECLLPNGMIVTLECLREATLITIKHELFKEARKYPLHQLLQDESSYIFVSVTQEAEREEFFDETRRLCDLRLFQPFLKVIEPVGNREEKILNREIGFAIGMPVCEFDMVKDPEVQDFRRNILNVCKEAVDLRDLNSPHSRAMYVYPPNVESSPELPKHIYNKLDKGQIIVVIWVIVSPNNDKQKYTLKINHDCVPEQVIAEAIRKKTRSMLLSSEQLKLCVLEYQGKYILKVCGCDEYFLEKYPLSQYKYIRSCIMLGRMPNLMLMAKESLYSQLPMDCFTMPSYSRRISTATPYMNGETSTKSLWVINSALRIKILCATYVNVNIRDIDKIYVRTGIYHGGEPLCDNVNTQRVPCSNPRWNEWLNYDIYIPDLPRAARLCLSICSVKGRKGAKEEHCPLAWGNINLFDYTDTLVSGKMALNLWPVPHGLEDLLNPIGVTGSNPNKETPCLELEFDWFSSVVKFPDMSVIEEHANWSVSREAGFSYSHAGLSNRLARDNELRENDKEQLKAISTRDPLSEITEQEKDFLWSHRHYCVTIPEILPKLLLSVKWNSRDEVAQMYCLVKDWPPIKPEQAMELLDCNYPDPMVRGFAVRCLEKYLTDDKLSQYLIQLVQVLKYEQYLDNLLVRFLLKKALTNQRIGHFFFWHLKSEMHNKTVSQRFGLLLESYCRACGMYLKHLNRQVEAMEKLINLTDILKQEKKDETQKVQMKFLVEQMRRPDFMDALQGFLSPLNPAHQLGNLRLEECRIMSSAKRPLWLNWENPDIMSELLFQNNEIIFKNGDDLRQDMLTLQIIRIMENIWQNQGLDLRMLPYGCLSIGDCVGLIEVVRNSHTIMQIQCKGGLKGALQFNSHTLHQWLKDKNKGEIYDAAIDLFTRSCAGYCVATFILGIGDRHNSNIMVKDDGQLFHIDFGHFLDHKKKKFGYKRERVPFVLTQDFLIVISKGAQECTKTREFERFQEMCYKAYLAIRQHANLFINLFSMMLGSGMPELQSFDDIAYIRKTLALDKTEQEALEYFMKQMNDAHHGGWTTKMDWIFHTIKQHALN

What was measured:
PI3Kδ = PI3Kδ (Homo sapiens, UniProt O00329); assay: PI3K inhibition assay (BPS Bioscience kit, ADP-Glo luminescence)
PI3Kα = PI3Kα (Homo sapiens, UniProt P42336); assay: as above

SMILES: C[C@H](NC(=O)c1c(N)nn2cccnc12)c1cc2cccc(C#Cc3cnn(C)c3)c2c(=O)n1-c1ccccc1 [IPI-549, reference compound]
- IC50 (PI3Kδ): 338 nM
- IC50 (PI3Kα): 187 nM
